How the values were obtained:
Type in all cases: functional, organism-based
[1] = molecular target: Fatty-acid amide hydrolase 1 (Rattus norvegicus) (UniProt P97612); assay: In vivo inhibition of FAAH in CFA induced Sprague-Dawley rat brain assessed as elevation of AEA level at 0.1 to 10 mg/kg, po using 3H-labeled AEA as substrate; details: dose 0.1-10 mg/kg
[2] = molecular target: Fatty-acid amide hydrolase 1 (Rattus norvegicus) (UniProt P97612); assay: In vivo inhibition of FAAH in CFA induced Sprague-Dawley rat plasma assessed as elevation of AEA level at 0.1 to 10 mg/kg, po using 3H-labeled AEA as substrate; details: dose 0.1-10 mg/kg
[3] = molecular target: Fatty-acid amide hydrolase 1 (Rattus norvegicus) (UniProt P97612); assay: In vivo inhibition of FAAH in CFA induced Sprague-Dawley rat brain assessed as elevation of OEA level at 0.1 to 10 mg/kg, po; details: dose 0.1-10 mg/kg
[4] = molecular target: Fatty-acid amide hydrolase 1 (Rattus norvegicus) (UniProt P97612); assay: In vivo inhibition of FAAH in CFA induced Sprague-Dawley rat brain assessed as elevation of PEA level at 0.1 to 10 mg/kg, po; details: dose 0.1-10 mg/kg
[5] = molecular target: Fatty-acid amide hydrolase 1 (Rattus norvegicus) (UniProt P97612); assay: In vivo inhibition of FAAH in CFA induced Sprague-Dawley rat brain assessed as elevation of AEA level at 1 mg/kg, po using 3H-labeled AEA as substrate measured for 1 to 24 hrs; details: time 1-24 hrs
[6] = molecular target: Fatty-acid amide hydrolase 1 (Rattus norvegicus) (UniProt P97612); assay: In vivo inhibition of FAAH in CFA induced Sprague-Dawley rat plasma assessed as elevation of AEA level at 1 mg/kg, po using 3H-labeled AEA as substrate measured for 1 to 24 hrs; details: time 1-24 hrs
[7] = molecular target: Fatty-acid amide hydrolase 1 (Rattus norvegicus) (UniProt P97612); assay: In vivo inhibition of FAAH in CFA induced Sprague-Dawley rat brain assessed as elevation of PEA level at 1 mg/kg, po measured for 1 to 24 hrs; details: time 1-24 hrs
[8] = molecular target: Fatty-acid amide hydrolase 1 (Rattus norvegicus) (UniProt P97612); assay: In vivo inhibition of FAAH in CFA induced Sprague-Dawley rat brain assessed as elevation of OEA level at 1 mg/kg, po measured for 1 to 24 hrs; details: time 1-24 hrs

Chains of the proteins cited; added tags and fusions are not shown.
UniProt P97612, whole entry: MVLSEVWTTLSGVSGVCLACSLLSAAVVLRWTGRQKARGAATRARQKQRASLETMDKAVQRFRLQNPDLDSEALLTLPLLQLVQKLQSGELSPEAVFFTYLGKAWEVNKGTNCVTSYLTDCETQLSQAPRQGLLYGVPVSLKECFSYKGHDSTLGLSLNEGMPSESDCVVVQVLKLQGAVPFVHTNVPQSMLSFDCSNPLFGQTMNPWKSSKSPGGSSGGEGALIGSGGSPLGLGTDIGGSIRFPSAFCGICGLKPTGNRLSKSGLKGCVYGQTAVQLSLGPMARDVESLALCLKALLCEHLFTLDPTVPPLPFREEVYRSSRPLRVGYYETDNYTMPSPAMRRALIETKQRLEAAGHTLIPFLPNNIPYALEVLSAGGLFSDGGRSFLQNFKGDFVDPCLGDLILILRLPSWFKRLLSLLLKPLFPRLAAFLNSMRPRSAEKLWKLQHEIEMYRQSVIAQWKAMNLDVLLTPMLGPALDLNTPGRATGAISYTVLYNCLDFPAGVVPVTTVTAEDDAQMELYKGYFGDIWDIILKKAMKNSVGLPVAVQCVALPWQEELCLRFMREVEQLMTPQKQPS

fold change (FC) [1]: 5 | fold change (FC) [2]: 3 | fold change (FC) [3]: 8 | fold change (FC) [4]: 8 | fold change (FC) [5]: 5 | fold change (FC) [6]: 3 | fold change (FC) [7]: 8 | fold change (FC) [8]: 8
Compound: O=C(Nc1cccnn1)N1CCC(=Cc2cccc(Oc3ccc(C(F)(F)F)cn3)c2)CC1
